Source: publication PMC4266796 (International Journal for Parasitology: Drugs and Drug …, 2014)

Tests used:
[1] = system: W. pipientis wAlbB in C6/36 (wAlbB) cells; conditions: 6 doses from 10 to 0.3 μM
[2] = system: Wolbachia of L. sigmodontis; format: in vivo, Wolbachia of Litomosoides sigmodontis in BALB/c mice; conditions: standard doses tested

Row | Structure (SMILES) | Dose response behaviour in titration series [1] | Effect on Wolbachia load (in words) [2]
1 | CCOC(=O)N1CCC(=C2c3ccc(Cl)cc3CCc3cccnc32)CC1 [Loratadine] | showed a dose response | no effect
2 | O=C(O)c1cn(C2CC2)c2cc(N3CCNCC3)c(F)cc2c1=O | activity only at the highest concentration | did not reduce
